Results published in PubChem BioAssay AID743397 (Broad Institute, 2014).
This is a selection; strong and weak results do not stand in their true shares. Activity calls are given as the source filed them.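 Rule for the calls: active = mean replicate inhibition of at least 30% and at least 1% of replicates passing that level; inconclusive = only one of the two criteria is met; inactive = neither criterion is met.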

The compounds below were run on Voltage-dependent L-type calcium channel subunit alpha-1D (CaV1.3) ICDI/IQ interaction (assay: Disruptors of the CACNA1D IQ motif to Ca2+-dependent inactivation inhibitor domain association, primary screening, Förster resonance energy transfer in intact living cells, one concentration (AID 743397;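 note: 0% = median of the neutral control wells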)). Conditions: HEK cells, CFP/YFP FRET ICDI-IQ, plate reader, 10 min; at 12.3 µM; hits give high values; percent FRET-ratio fall versus neutral wells.
In the case of C[C@H]1OP(=O)(Oc2ccccc2)[C@H](O)[C@H](O)[C@H]1N=[N+]=[N-] (stereo partly specified), the inhibition is reported as inactive: -11.2%.
